Assay results as given in patent publication US20220267379A1, “NOVEL INHIBITORS OF […] AND USES THEREOF” (Ecole Polytechnique Federale de Lausanne (EPFL), priority 2019, published 2022).

Target: KLK7

Substance P C L Y L A R C [compound 114] has a Ki of 29 ± 4 nM.
